Measured logP (octanol/water) values of organic chemicals

Values as listed in the OPERA 2.9 repository of K. Mansouri.

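These are experimental values that the OPERA curators gathered from public databases to train and test their QSAR models. One number stands for a compound and property, with no spread given. Method and conditions are not stated for these values. Where a salt, mixture or single isomer is drawn, the source does not say that exactly this form was tested. Some upstream entries may be estimates or bounds without being marked so.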

logP is the log10 of the octanol-water partition coefficient; higher is more lipophilic.
"n/a" marks a cell with nothing listed here.
"via" names the databases from which the curators took the value.

| logP (octanol/water) | structure (SMILES) | name | via |
|---|---|---|---|
| 0.79 | CNc1ccc(O)cc1.CNc1ccc(O)cc1.O=S(=O)(O)O | N-Methyl-p-aminophenol sulfate | eChemPortal |
| 7.2 | Clc1cc(Cl)c(-c2cc(Cl)c(Cl)c(Cl)c2Cl)c(Cl)c1 | 2,2',3,4,4',5,6'-Heptachlorobiphenyl | OCHEM |
| -2.67 | O=C(O)c1cc(S(=O)(=O)[O-])cc(Nc2nc(Nc3cc(S(=O)(=O)[O-])cc(C(=O)O)c3O)nc(Nc3cc(S(=O)(=O)[O-])cc(C(=O)O)c3O)n2)c1O.[Na+].[Na+].[Na+] | n/a | eChemPortal |
| 2.2 | O=C(Oc1ccc(OC(=O)c2ccc(O)cc2)cc1)c1ccc(O)cc1 | n/a | eChemPortal |
| 1.313 | COC1CCC=CO1 (centres undefined) | 3,4-Dihydro-2-methoxy-2H-pyran | eChemPortal |
| 4.62 | O=C(Nc1ccccc1)c1cc2ccccc2cc1O | 3-Hydroxy-2-naphthanilide | OCHEM |
| 4 | C#C[C@]1(O)CC[C@H]2[C@@H]3CCC4=CCCC[C@@H]4[C@H]3C(=C)C[C@@]21CC | Desogestrel | PubChem |
| -0.88 | CC(C)c1nc(N(C)S(C)(=O)=O)nc(-c2ccc(F)cc2)c1/C=C/[C@@H](O)C[C@@H](O)CC(=O)O | Rosuvastatin | PubChem |
| -2.36 | O=C(O)c1ccc[n+](-c2nc(NCCNc3ccc4c(c3S(=O)(=O)[O-])Oc3c(Cl)c5c(c(Cl)c3=N4)Oc3c(ccc(NCCNc4nc(Nc6cc(S(=O)(=O)[O-])ccc6S(=O)(=O)[O-])nc(-[n+]6cccc(C(=O)O)c6)n4)c3S(=O)(=O)[O-])N=5)nc(Nc3cc(S(=O)(=O)[O-])ccc3S(=O)(=O)[O-])n2)c1.[Na+].[Na+].[Na+].[Na+].[Na+].[Na+] | C.I. Reactive Blue 187 | eChemPortal |
| -5.5 | NC(=O)Nc1cc(Nc2nc(N)nc(Cl)n2)ccc1/N=N/c1cc2c(S(=O)(=O)[O-])cc(S(=O)(=O)[O-])cc2cc1S(=O)(=O)[O-].[Na+].[Na+].[Na+] | C.I. Reactive Orange 12 | eChemPortal |
| 1.52 | O=c1c2cc3[nH]c4c(Cl)cccc4c(=O)c3cc2[nH]c2c(Cl)cccc12 | n/a | eChemPortal |
| -1.019 | CCN(CC)S(=O)(=O)c1ccc(OC)c(/N=N/c2cc(S(=O)(=O)[O-])c3ccccc3c2O)c1.[Na+] | n/a | eChemPortal |
| 2.11 | CCOc1nc2cccc(C(=O)O)c2n1Cc1ccc(-c2ccccc2-c2nnn[nH]2)cc1 | Candesartan | eChemPortal |
| 2.645 | CCCCCC(O)CC (centres undefined) | 3-Octanol | eChemPortal |
| -2.26 | OCCN(CCO)C(CO)(CO)CO | n/a | eChemPortal |
| 2.2 | [Cu+2].[O-]c1ccccc1/N=C/c1c([O-])ccc2ccccc12 | n/a | eChemPortal |
| 0.08 | CCN1CCOCC1 | N-Ethylmorpholine | eChemPortal |
| 4 | CC1(COc2ccc(CC3SC(=O)NC3=O)cc2)CCCCC1 (centres undefined) | Ciglitizone | OCHEM |
| 1.205 | CCO[Si](C)(C)C | Ethoxytrimethylsilane | eChemPortal |
| -0.021 | Cl[Si](Cl)(Cl)c1ccccc1 | Trichlorophenylsilane | eChemPortal |
| -1 | Cn1c(-c2ccccc2)c(/N=N/c2scc[n+]2C)c2ccccc21.[Cl-] | C.I. Basic Red 29 | eChemPortal |
| 6.82 | Clc1cc(Cl)c(-c2c(Cl)c(Cl)cc(Cl)c2Cl)c(Cl)c1 | 2,2',3,4',5,6,6'-Heptachlorobiphenyl | OCHEM |
| -0.5 | CC(=O)N1CSCC1C(=O)O (centres undefined) | 4-Thiazolidinecarboxylic acid, 3-acetyl- | eChemPortal |
| 1.6 | NCc1ccccc1Cl | 2-Chlorobenzylamine | eChemPortal |
| -0.2 | [K+].[O-]/[N+](=N\O)C1CCCCC1 | n/a | eChemPortal |
| -2.7 | COc1cc(/N=N/c2cccc(S(=O)(=O)[O-])c2)ccc1NC(=O)Nc1ccc(/N=N/c2cccc(S(=O)(=O)[O-])c2)cc1OC.[Na+].[Na+] | n/a | eChemPortal |
| 0.7 | COC(=O)CC(O)(CC(=O)OC)C(=O)OC | 1,2,3-Propanetricarboxylic acid, 2-hydroxy-, trimethyl ester | eChemPortal |
| 0.817 | CN(C)CCCNC(=O)NCCCN(C)C | 1,3-Bis(3-(dimethylamino)propyl)urea | eChemPortal |
| -4.4 | NCCCCCCN.O=C(O)CCCCC(=O)O | Hexanedioic acid, compd. with 1,6-hexanediamine (1:1) | eChemPortal |
| 1.46 | Oc1ccc(F)cc1F | 2,4-Difluorophenol | OCHEM |
| 6.8 | CCCCCCCCC(CO)CCCCCC (centres undefined) | 2-Hexyl-1-decanol | eChemPortal |
| 0.58 | CC(O)CC(C)(C)O (centres undefined) | 2-Methyl-2,4-pentanediol | OCHEM, PubChem |
| -0.3 | CCN(Cc1ccccc1)c1ccc(/C=C(\C#N)C(=O)OCC[N+](C)(C)C)cc1.[Cl-] | n/a | eChemPortal |
| 2.62 | CO/N=C(\C(=O)N[C@@H]1C(=O)N2C(C(=O)OCOC(=O)C(C)(C)C)=C(COC(C)=O)CS[C@H]12)c1csc(N)n1 | n/a | OCHEM |
| -0.63 | CC(C)(N)CO | 2-Amino-2-methylpropan-1-ol | OFMPub, eChemPortal |
| 4.7 | CCCC(=O)OC(C)(C)Cc1ccccc1 | alpha,alpha-Dimethylphenethyl butyrate | eChemPortal |
| -2.35 | C[N+](C)(C)C12CC3CC(CC(C3)C1)C2.C[N+](C)(C)C12CC3CC(CC(C3)C1)C2.O=S(=O)([O-])[O-] | n/a | eChemPortal |
| 3 | CCSSCC | Diethyl disulphide | OCHEM |
| 3.8 | O=C(c1ccccc1)C1(F)C=CC(F)=CC1 (centres undefined) | (1,4-Difluorocyclohexa-2,4-dien-1-yl)(phenyl)methanone | eChemPortal |
| 1.7 | C=C(C)OC | 2-Methoxyprop-1-ene | eChemPortal |
| -2.05 | CC(=O)Nc1cc(Nc2nc(Nc3ccc(/N=N/c4cccc(S(=O)(=O)[O-])c4)c(NC(C)=O)c3)nc(N3CCOCC3)n2)ccc1/N=N/c1cccc(S(=O)(=O)[O-])c1.[Na+].[Na+] | n/a | eChemPortal |
| 5.08 | CCc1ccc(-c2ccccc2)cc1 | 1,1'-Biphenyl, 4-ethyl- | OCHEM |
| -2.783 | CCN(CC)c1ccc(C(=C2C=CC(=[N+](CC)CC)C=C2)c2ccc(S(=O)(=O)[O-])cc2S(=O)(=O)[O-])cc1.[Na+] | Sulfan blue | eChemPortal |
| -1.7 | O=C(O)c1cc(C(=O)O)cc(S(=O)(=O)[O-])c1.[Na+] | Sodium 5-sulfoisophthalate | eChemPortal |
| -1.5 | CC(=O)Nc1ccc(/N=N/c2c(N)ccc3cc(S(=O)(=O)[O-])cc(O)c23)c(C(F)(F)F)c1.[Na+] | n/a | eChemPortal |
| 4.1 | COc1ccccc1N1CCN(CCCOc2ccc(F)cc2)CC1 | 1-[3-(4-Fluorophenoxy)propyl]-4-(2-methoxyphenyl)-piperazine | OCHEM |
| 0.67 | O=C1C=CC(=O)N1c1cccc(N2C(=O)C=CC2=O)c1 | N,N'-1,3-Phenylenedimaleimide | eChemPortal |
| -0.03 | CSCC[C@H](NC(C)=O)C(=O)O | L-Methionine, N-acetyl- | PubChem |
| 9.4 | CC(=O)OC/C=C(C)/C=C/C=C(C)/C=C/C1=C(C)CCCC1(C)C | Retinol acetate | eChemPortal |
| 0.63 | COC(C)OC | 1,1-Dimethoxyethane | eChemPortal |
| -0.546 | O=S(=O)([O-])c1ccc(/N=N/c2c(O)ccc3ccccc23)c2ccccc12.[Na+] | C.I. Acid Red 88, monosodium salt | eChemPortal |
| 2.16 | CCCCOC(=O)CCC | Butyric acid n-butyl ester | eChemPortal |

7 of these entries, quoted again:

| structure (SMILES) | name | logP (octanol/water) | via |
|---|---|---|---|
| CCOc1nc2cccc(C(=O)O)c2n1Cc1ccc(-c2ccccc2-c2nnn[nH]2)cc1 | Candesartan | 2.11 | eChemPortal |
| CC(C)c1nc(N(C)S(C)(=O)=O)nc(-c2ccc(F)cc2)c1/C=C/[C@@H](O)C[C@@H](O)CC(=O)O | Rosuvastatin | -0.88 | PubChem |
| Cl[Si](Cl)(Cl)c1ccccc1 | Trichlorophenylsilane | -0.021 | eChemPortal |
| CCN(Cc1ccccc1)c1ccc(/C=C(\C#N)C(=O)OCC[N+](C)(C)C)cc1.[Cl-] | n/a | -0.3 | eChemPortal |
| Oc1ccc(F)cc1F | 2,4-Difluorophenol | 1.46 | OCHEM |
| O=C(Oc1ccc(OC(=O)c2ccc(O)cc2)cc1)c1ccc(O)cc1 | n/a | 2.2 | eChemPortal |
| COC(C)OC | 1,1-Dimethoxyethane | 0.63 | eChemPortal |